Data from patent US10034922B2, “Peptide having angiogenesis inhibitory activity and composition containing same” (GemVax & KAEL Co., Ltd., priority 2013, dated 2018).

Columns and labels:
HSP70 = HSP70 level in hypoxia circumstance (immunoblotting); format: cell-based, human; settings: PEP1 20 μM, vs mock treated control
Description: (§1) In hypoxia circumstance, for verifying the effect of PEP1 to the level of HSP, MCF7 and HeLa cells were treated with 20 μM PEP1, and incubated in the hypoxia circumstance and the normoxia circumstance. By using BBL GasPak (Becton Dickinson) which lows the oxygen to non-detective level in 90 minutes by catalytic reaction, the anoxia circumstance was induced. The incubation time was in a range of 2 to 24 hours. As mentioned above, the cells were collected and immunoblotted by using α-HSP70, α-HSP90, α-HIF-1α, or α-GAPDH antibodies. The α-GAPDH, for the protein quantification, was used for the normalization of the amount of HSP70/90 by the amount of GAPDH.

HSP90 [1] = assay: HSP90 level in hypoxia circumstance (immunoblotting); format: cell-based, human; settings: PEP1 20 μM, vs mock treated control
Description: as §1

HeLa cells = assay: Cancer cell growth in normoxia and hypoxia (trypan blue exclusion count); format: cell-based, human; settings: PEP1 20 μM, up to 6 days
Description: (§2) For verifying the effect of PEP1 to the cancer cell growth in the hypoxia circumstance, MCF7 and HeLa cells were seeded to 96-well plate of the 1×10^4 cells per well and incubated in the 10% FBS added complete media of the 37° C., 5% CO2 circumstance. After treating the serum starvation in 2 hours, it was incubated in the complete media with or without PEP1 (20 μM). As mentioned above, the cells were incubated for 1 day to 6 days in the hypoxia circumstance or the normoxia circumstance. The number of viable cells were measured by the tryphan blue exclusion staining method. All of the calculation experiments were repeated.

MCF7 cells = assay: as above; format: cell-based, human; settings: PEP1 20 μM, up to 6 days
Description: as §2

Tie2+ CD11b+ monocytes = assay: Tie2+ monocyte recruitment in tumor (confocal immunofluorescence); format: in vivo, mouse; settings: MC38 tumor mice, PEP1 50 μg/kg once per 2 days
Description: (§3) 7 week-old BALB/c athymic mice (Nu/Nu) (10 mice per group; n=20, female, Orient Bio Co. Gyunggido, Korea) were divided into two groups randomly after the subcutaneous injection of murine colon carcinoma MC38 (5×10^5 cells/ml in 200 μl PBS per site). PEP1 (50 μg/kg in 100 μl 0.9% NaCl solution) or PBS were injected into the mice once per 2 days. When the size of tumor reaches 10 mm, the PEP1 and PBS were injected to the inside of tumor. The size of tumor was measured in once per 2 days, and the volume of tumor was calculated following equation; volume (mm3)=((width2×length)/2). All experiments were approved by the Institute for Experimental Animals (College of Medicine, Seoul National University at Seoul, Korea).
The sliced tumor section was fixed in 4% paraformaldehyde in room temperature during 15 minutes. It was rinsed by PBS 2 times, incubated in PBS with 0.25% Triton X-100 during 10 minutes, and rinsed by PBS 3 times again. After blocking the tissue in 1% BSA-PBST during 30 minutes, it was incubated with the mixture of the mouse anti-Tie2 (557039, BD Pharmigen) and the anti-CD11b (rat anti-CD11b antibodies, ab8878, abcam) antibodies in the 4° C. humidified chamber. […] For visualizing the cell nucleus, it was incubated with DAPI (Sigma Aldrich) during 1 minute and analyzed by the confocal microscope.

HSP90 [2] = assay: Secreted HSP90 level in blood of tumor-bearing mice (ELISA); format: in vivo, mouse; settings: serum of MC38 tumor mice, PEP1 50 μg/kg
Description: as §3, with “Korea). VEGF secretion in cancer cells was confirmed by ELISA (Enzyme-linked immunosorbent assay). MCF7 and HeLa cells were incubated in the hypoxia circumstance or the normoxia circumstance after adding PEP1 or vehicle during 24 hours. The amount of VEGF in the cell supernant was confirmed by human VEGF immune analysis kit (R&D Systems, USA) following the instruction of the manufacturer. For analyzing the concentration of HSP70 and HSP90 in blood, the blood was collected from the mouse model having tumor. […]” for “Korea).”

[3] = system: Human umbilical vein endothelial cell; assay: Endothelial tube formation stimulated by EGM-2 media; format: cell-based; settings: PEP1 0.05, 0.5, 5 μM, EGM-2 media stimulation
Description: On the 24-well plate coated by 200 μl of Matrigrl® basement membrane matrix (10.4 mg/mL, BD Biosciences) for 30 minutes at 37° C., the vascular endothelial cells were plated and serum-starved in the basic EBM-2 media for 2 hours. The change of the tube formation was observed by Olympus CKX41 inverted microscope (CAchN 10/0.25 php objective, Olympus Optical Co., Tokyo, Japan) and ToupTek Toupview software (version x86, 3.5.563, Hangzhou ToupTek Photonics Co., Zhejiang, P. R. China) (FIG. 2a).

[4] = system: Human umbilical vein endothelial cell induced by VEGF-A; assay: Invasion of vascular endothelial cells by VEGF-A (Matrigel transwell); format: cell-based; settings: PEP1 0.05, 0.5, 5 μM, VEGF-A 10 ng/mL, 18 hours
Description: The vascular endothelial cells of the serum-starvation by the basic EBM-2 media for 2 hours were plated each as 100 mL (4×10^5 cells/mL) to Matrigel® (1 mg/mL, BD Biosciences)-coated transwell insert (Costar, 6.5 mm diameter), and the 600 μl basic EBM-2 media was added to the under well.
After treating with PEP1 at each concentration (0.05, 0.5, 5 μM) and stimulating by VEGF-A (10 ng/mL) for 18 hours, the insert was fixed by the methanol and the non-infiltrated cells in the upper side of the insert was eliminated by using cotton-tipped swab. After staining by the Giemsa stain solution (Sigma-Aldrich Co., St. Louis, Mo., USA) and observing the 6 different parts by the microscope (×200), the infiltrated cells were directly counted by using the microscope (FIG. 6a).

SMILES: CC[C@H](C)[C@H](NC(=O)[C@H](Cc1ccccc1)NC(=O)[C@H](CCCNC(=N)N)NC(=O)[C@H](CC(C)C)NC(=O)[C@H](CCCNC(=N)N)NC(=O)[C@H](CO)NC(=O)[C@@H](NC(=O)[C@H](CC(C)C)NC(=O)[C@H](CC(C)C)NC(=O)[C@H](C)NC(=O)[C@@H]1CCCN1C(=O)[C@H](CCCNC(=N)N)NC(=O)[C@H](C)NC(=O)[C@@H](N)CCC(=O)O)[C@@H](C)O)C(=O)N1CCC[C@H]1C(=O)N[C@@H](CCCCN)C(=O)O [PEP1, EARPALLTSRLRFIPK]
- expression of HSP70 over time (HSP70; HeLa cells): significantly decreased
- expression of HSP70 over time (HSP70; MCF7 cells): significantly decreased
- expression of HSP90 over time (HSP90 [1]; HeLa cells): significantly decreased
- expression of HSP90 over time (HSP90 [1]; MCF7 cells): significantly decreased
- cell growth inhibition effect (HeLa cells; hypoxia, vs normoxia): significantly increased
- cell growth inhibition (HeLa cells; normoxia): inhibited little
- cell growth inhibition effect (MCF7 cells; hypoxia, vs normoxia): significantly increased
- cell growth inhibition (MCF7 cells; normoxia): inhibited little
- number of Tie2+ CD11b+ monocytes in tumor vs control mouse tumor (Tie2+ CD11b+ monocytes): significantly lower
- secreted HSP90 level in blood vs control group (HSP90 [2]): no changes
- tube formation [3]: in a concentration-dependent way inhibits
- cell invasion by the VEGF-A [4]: strongly inhibits
